Test results as given in publication PMC11648681, “Development of machine learning models for the prediction of the skin sensitization potential of cosmetic compounds” (PeerJ, 2024).
“And” between values parts separate entries of the source, which are not always exact repeats. Identical values can stand only once.

Tested on: THP-1 cells
Assay: CCK-8 cell viability of THP-1 cells after 48 h compound treatment in HaCaT/THP-1 co-culture
Assay type: cell-based, human
Details: for Cell viability: THP-1, individual replicate values
Procedure: The co-culture system was set up according to the following described method. In brief, when the HaCaT cells reached 80–90% confluency, they were digested with 0.25% trypsin (Cytiva, Burlington, MA, USA), collected, and seeded into 96-well plates at a density of 10,000 cells per well for 24 h. THP-1 cells were collected, centrifuged, and re-suspended in fresh RPMI-1640 medium supplemented with 10% FBS at 2 × 10^6 cells/mL. Then cells are distributed into HaCaT-seeded 96 wells plate with 80 μL (1.6 × 10^5 cells/well).
The compounds listed in Table 1 were dissolved in DMSO to create stock solutions with a concentration of 500 mg/mL. Eleven concentrations were subsequently prepared using two-fold serial dilutions. These stock solutions were then further diluted 250-fold in RPMI-1640 + 10% FBS medium. Finally, 80 μL of the prepared solutions were added 1:1 to the treated 96-well plates and incubated for 48 h at 37 °C and 5% CO2.
After 48 h of treatment, the treated cells were collected 100 μL cells per well. The supernatant medium was added 10 μL of CCK-8 (Life-iLab, Shanghai, China) solution to each well and incubated the plate in the incubator for 2–4 h. THP-1 cell viability was determined using standard calculation methods.
The cytotoxicity of 15 test compounds listed in Table 1 was assessed using THP-1 cells across a concentration range of 1,000 to 3.9 μg/mL. Cell viability was assessed after 48 h of treatment using the CCK-8 assay.

Compound `CC(C)CCCC(C)CCCC(C)CCCCC(C)CCCC(C)CCCC(C)C` (stereo not shown) [squalane, Squalane] has a Cell viability (62.5 μg/mL) of 86.3429%.

With Isoeugenol the Cell viability (0.976563 μg/mL) was 86.2556% and 92.0075%, the Cell viability (1.95312 μg/mL) was 67.2105% and 60.8571% and the Cell viability (3.90625 μg/mL) was 70.594% and 61.9023%. The Cell viability (7.8125 μg/mL) was 66.1654% and 59.3534%, the Cell viability (15.625 μg/mL) was 55.3684% and 59.015% and the Cell viability (31.25 μg/mL) was 55.3985% and 58.8722%. The Cell viability (62.5 μg/mL) was 37.6165% and 43.6466%, the Cell viability (125 μg/mL) was 20.0376% and 20.4586% and the Cell viability (250 μg/mL) was 27.2181% and 25.4962%. For the same compound, the Cell viability (500 μg/mL) was 29.9098% and 23.2105%, the Cell viability (1000 μg/mL) was 22.5338% and 25.6617% and the “final concentration used (highest concentration that maintained at least 80% cell viability)” value (THP-1 cells, CCK-8, single (not double) concentration) was 1.95 µg/mL.
